Drawing on patent US6387881B1, “Inhibitors and substrates of thrombin” (priority 1992, dated 2002), this text covers Ki for one compound.

This experiment addresses human α-thrombin (Homo sapiens, UniProt P00734). The experiment is classed as biochemical. The protocol: The inhibition of human α-thrombin was determined by the inhibition of the enzyme catalyzed hydrolysis of three different concentrations of the chromogenic substrate S-2238.
200 μl of sample or buffer and 50 μl of S-2238 were incubated at 37° C. for 1 min and 50 μl of human α-thrombin (0.25 NIHu/ml) was added. The initial rate of inhibited and uninhibited reactions were recorded at 405 nm. The increase in optical density was plotted according to the method of Lineweaver and Burke. The Km and apparent Km were determined and Ki was calculated using the relationship: [formula]

As to `N=C(N)NCCCC(NC(=O)C1CCCN1C(=O)C(N)Cc1cccc2ccccc12)C(=O)CCC(=O)N1CCCCC1` (mixture of isomers) [Compound 9, D,L-α-Nal-Pro-Arg--k--Gly-Pip], the Ki turned out to be 13.5 µM.

In general, Ki refers to a measure of affinity in units of concentration, obtained from inhibition or displacement. A higher Ki goes with lower affinity.
